Three substances from patent US20200297862A1, “METHODS OF USING BISPECIFIC ANTIGEN-BINDING CONSTRUCTS TARGETING HER2” (Zymeworks Inc., priority 2016, published 2020) can be followed below.

Where two headings read alike, the source gives them in different places.

Assay [1] relates to MCF7 cells. Put plainly: Binding to HER2+ cells by flow cytometry (FACS): Bmax and apparent KD. On the set-up: species or system human. Particulars: Table 37. Here is the method: The following experiment was performed to measure the ability of an exemplary biparatopic anti-HER2 antibody to bind to cells expressing varying levels of HER2 in comparison to controls. […] The ability of the biparatopic anti-HER2 antibodies to bind to the HER2 expressing (HER2+) cells was determined as described below, with specific measurement of Bmax and apparent KD (equilibrium dissociation constant).
(§1) Binding of the test antibodies to the surface of HER2+ cells was determined by flow cytometry. Cells were washed with PBS and resuspended in DMEM at 1×10^5 cells/100 μl. 100 μl cell suspension was added into each microcentrifuge tube, followed by 10 μl/tube of the antibody variants. The tubes were incubated for 2 hr 4° C. on a rotator. The microcentrifuge tubes were centrifuged for 2 min 2000 RPM at room temperature and the cell pellets washed with 500 μl media. Each cell pellet was resuspended 100 μl of fluorochrome-labelled secondary antibody diluted in media to 2 μg/sample. The samples were then incubated for 1 hr at 4° C. on a rotator. After incubation, the cells were centrifuged for 2 min at 2000 rpm and washed in media. The cells were resuspended in 500 μl media, filtered in tube containing 5 μl propidium iodide (PI) and analyzed on a BD LSR II flow cytometer according to the manufacturer's instructions. The KD of exemplary biparatopic anti-HER2 heterodimer antibody and control antibodies were assessed by FACS with data analysis and curve fitting performed in GraphPad Prism.
For orientation: Flow cytometry measures light scatter and fluorescence of single cells or particles in a stream.

For assay [2], the system named is JIMT-1 cells. Put plainly: Whole cell loading and internalization (AlexaFluor 488 labelled antibody, flow cytometry). The assay is classed as cell-based, human. Particulars: 200 nM labelled antibody, Table 40.
Assay [3] deals with BT-474 cells. The assay is described as above. The assay is classed as cell-based, human. Particulars: 200 nM labelled antibody, Table 39.
Assay [4] deals with BT-474 cells. Briefly: Growth inhibition in the presence or absence of exogenous ligands (EGF, HRG). The assay is classed as cell-based, human. Particulars: Table 46.
The next assay relates to MDA-MB-231 cells. Put plainly: ADCC, NK effector cells E:T 5:1. The assay is classed as cell-based, human.
In assay [5] the test system is BT-474 cells. Put plainly: Binding to HER2+ cells by flow cytometry (FACS), format comparison. Also on record: species or system human. Particulars: Table 35. As to the method: as §1
Assay [6] concerns MCF7 cells. Briefly: ADCC, NK-92 effector cells E/T 5:1. It counts as cell-based, human. Particulars: NK-92 E/T 5:1, Table 44. Here is the method:
(§2) The ADCC experiment was conducted as described in Example 11 with E/T: 5:1 with NK-92 effector cells. FIG. 43A and Table 43 show the ADCC results in HER2 2+ JIMT-1 breast tumor cells.

The test system of assay [7] is JIMT-1 cells. Briefly: ADCC, NK effector cells E:T 5:1. The assay is classed as cell-based, human. Here is the method: (§3) Target cells were pre-incubated with test antibodies (10-fold descending concentrations from 45 μg/ml) for 30 min followed by adding effector cells with effector/target cell ratio of 5:1 and the incubation continued for 6 hours at 37° C.+5% CO2. Samples were tested with 8 concentrations, 10 fold descending from 45 μg/ml. LDH release was measured using LDH assay kit.
(§4) Dose-response studies were performed with various concentrations of the samples with a effector/target (E/T) ratios of 5:1. 3:1 and 1:1. Half maximal effective concentration (EC50) values were analyzed with the sigmoidal dose-response non-linear regression fit using GraphPad prism.
(§5) The ADCC experiments were performed as described in Example 11 with the exception that NK effector cell to target cell ratio remained constant at 5:1.
as §2

For assay [8], the system named is MCF7 cells. Put plainly: Whole cell loading and internalization (AlexaFluor 488 labelled antibody, flow cytometry). The assay is classed as cell-based, human. Particulars: 200 nM labelled antibody, Table 41.
In assay [9] the test system is SKOV3 cells. Briefly: Cytotoxicity of anti-HER2 ADCs in HER2+ cells. It counts as cell-based, human. Particulars: continuous incubation 5 days, Celltiter-Glo; Table 16.
For assay [10], the system named is JIMT-1 cells. Briefly: Cytotoxicity of anti-HER2 ADCs in HER2+ cells. It counts as cell-based, human. Particulars: continuous incubation 5 days, Celltiter-Glo; Table 16. In general terms: In ATP-based viability assays light output follows the ATP content of the culture.
For the next assay, the system named is NCI-N87 cells. Put plainly: Cytotoxicity of anti-HER2 ADCs in HER2+ cells. It counts as cell-based, human. Particulars: continuous incubation 5 days, Celltiter-Glo; Table 16. As to the method: Test antibodies were diluted in media and added to the cells at 10 μl/well in triplicate. The plates were incubated for 3 days 37° C. Cell viability was measured using either AlamarBlue™ (Biosource # dal1100), or Celltiter-Glo® and absorance read as per the manufacturer's instructions. Data was normalized to untreated control and analysis was performed in GraphPad prism.
Human IgG conjugated to DM1 (v6249) was used as a control in some cases. […] The method was conducted as described in Example 7 with the following modifications. The anti-HER2 ADCs were incubated with the target SKOV3 and JIMT-1 (FIGS. 17A and B) cells for 24 h, cells washed, media replaced and cell survival was evaluated after 5 day incubation at 37° C. […] In FIG. 17E-G, anti-HER2 ADCs were incubated continuously with target SKOV3, JIMT-1, NCI-N87 cells for 5 days. Cell viability was measured as described in Example 7 using either AlamarBlue™ (FIGS. 17A-D) or Celltiter-Glo® (FIGS. 17E-G).

Another assay has as its system SKOV3 xenograft. Briefly: Human ovarian cancer cell xenograft model, ADC (Example 17). It counts as in vivo, athymic nude mice. (Xenograft models place foreign cells or tissue in a host animal.)
A further assay concerns T226 xenograft. Briefly: Trastuzumab resistant breast cancer PDX, ADC (Example 19). It counts as in vivo, athymic nude mice. Particulars: Day 31. Here is the method:
(§6) Dosing for each group was as follows:
(§7) A) IgG control was dosed intravenously with a loading dose of 15 mg/kg on study day 1 and maintenance doses of 10 mg/kg administered on study days 4, 8, 11, 15, 18, 22, and 25

The subject of a further assay is ST803 xenograft. Put plainly: PDX model of HER2 negative pancreatic cancer (Example 48).
In another assay the test system is SKBr3 cells. Put plainly: ADCC, NK effector cells E:T 5:1. The assay is classed as cell-based, human. As to the method: as §3, §4, §5
A further assay deals with ZR-75-1 cells. Briefly: ADCC, PBMC effector cells E:T 5:1. The assay is classed as cell-based, human.
Assay [11] has as its system SKOV3 cells. Briefly: ADCC (LDH release). It counts as cell-based, human.
The test system of the next assay is FaDu xenograft. Particulars: mouse, in vivo. Here is the method: FaDu cells are derived from squamous cell cancer of the head and neck that is HER2 low, non-HER2 gene amplified, HER3+, EGFR+ and highly sensitive to Cisplatin at the MTD.
Tumor cell suspensions were implanted subcutaneously into athymic nude mice. […] Cisplatin was purchased and provided for the study by Charles River Laboratories (Morrisville, N.C.). Animals were treated according to Regimen 1 at Day 1, followed by Regimen 2 on subsequent days as noted in Table A4.

The test system of another assay is GXA3054 xenograft. Put plainly: PDX model of HER2 3+ gastric cancer (Example 49). The assay is classed as in vivo, athymic nude mice.
For the next assay, the system named is HBCx-5 xenograft. Briefly: Trastuzumab resistant breast cancer PDX, ADC (Example 20). Particulars: Day 43. It counts as in vivo, athymic nude mice. Here is the method: as §6, §7
Tumor volume was measured throughout the course of the study, and the mean tumor volume, T/C ratio, number of responders, complete response, and zero residual disease parameters were assessed at day 43.

In a further assay the test system is ST1337B xenograft. Briefly: PDX model of HER2 1+, ER+ breast cancer (Example 47). It counts as in vivo, athymic nude mice. Particulars: comparator groups (doses in Table A7).
Another assay concerns JIMT-1 xenograft. Put plainly: Trastuzumab-resistant breast cancer cell derived xenograft, ADC (Example 32). The assay is classed as in vivo, RAG2 mice. Particulars: Day 36.

Take “v6717: biparatopic anti-HER2 antibody, scFv-scFv format (pertuzumab scFv, trastuzumab scFv), heterodimeric Fc”: the figures for the Bmax with MCF7 cells [1] and in the assay with BT-474 cells [5] were 1167 and 36392, respectively. The Kd in the assay on MCF7 cells [1] (apparent KD) came out at 32 nM; in the assay with BT-474 cells [5] (apparent KD), 30 nM. The “Surface 4° C.” value in the assay on JIMT-1 cells [2] (2 h at 4° C.) was 247; in the assay on BT-474 cells [3] (2 h at 4° C.), 2006; in the assay with MCF7 cells [8] (2 h at 4° C.), 48. Also, the “Internal 37° C.” value in the assay on JIMT-1 cells [2] (24 h at 37° C.) came out at 1082; in the assay on BT-474 cells [3] (24 h at 37° C.), 6498; with MCF7 cells [8] (24 h at 37° C.), 145. For the same substance, the “Surface 37° C.” value was 31 in the assay on JIMT-1 cells [2] (24 h at 37° C.), 1212 in the assay on BT-474 cells [3] (24 h at 37° C.) and 31 in the assay on MCF7 cells [8] (24 h at 37° C.). The “% Survival +EGF” value with BT-474 cells [4] is listed as 129%. Further, the “% Survival +HRG” value in the assay with BT-474 cells [4] worked out at 126%. For the same substance, the “% Survival Antibody only” value with BT-474 cells [4] amounted to 113%. Besides, the “% Max Cell Lysis(top only)” value with MDA-MB-231 cells (NK-92 E/T 5:1, Table 45) came out at 63%. Moreover, the EC50 with MDA-MB-231 cells (NK-92 E/T 5:1, Table 45, read-out: EC50) is 10 nM; with MCF7 cells [6] it was 109 nM; in the assay with JIMT-1 cells [7] (NK-92 E/T 5:1, Table 43, read-out: EC50) it was approximately 0.72 nM. For the same substance, the “% Max Cell Lysis” value in the assay on MCF7 cells [6] is 30%; in the assay on JIMT-1 cells [7] (NK-92 E/T 5:1, Table 43), 51%.
In the case of “v6246: v506 conjugated to DM1, analogous to T-DM1, trastuzumab-emtansine”, the EC50 came out at 0.22 nM with SKOV3 cells [9], 3.52 nM in the assay with JIMT-1 cells [10] and 1.04 nM with NCI-N87 cells. Besides, the “% TGI” value in the assay on SKOV3 xenograft (Day 22) came out at 54%. The “Mean TV % change from Baseline” value in the assay on SKOV3 xenograft (Day 22, n = 15) is on record as “+297%”; with T226 xenograft it was “(+332%)”. The “Mean TV (mm3)” value came to 873 mm3 in the assay on SKOV3 xenograft (Day 22, n = 15) and 422 mm3 in the assay with T226 xenograft. In addition, the “Median Survival” value in the assay on SKOV3 xenograft (mouse, in vivo) was 36 days. Besides, the “% TGI (vs. hIgG)” value in the assay on T226 xenograft came to 77%.
Take trastuzumab [Herceptin ®]: the “Mean tumor volume on study day 54” value in the assay on ST803 xenograft (mouse, in vivo) came to 1494 mm3. Besides, the Median Survival with ST803 xenograft (study duration 71 days) is recorded as 65.9 days. Further, the “SICBr3 HER2 3+ Max % Target Cell Lysis” value in the assay with SKBr3 cells (NK E:T 5:1, Table 23) is on record as 23%. In addition, the EC50 in the assay with SKBr3 cells (NK E:T 5:1, Table 23, read-out: SICBr3 HER2 3+ EC50) is approximately 0.9 nM. The “MDA-MB-231 HER2 0/1+ Max % Target Cell Lysis” value with MDA-MB-231 cells (NK E:T 5:1, Table 23) was determined as 44%. In the assay with MDA-MB-231 cells (read-out: MDA-MB-231 HER2 0/1+ EC50, NK E:T 5:1, Table 23), the EC50 stood at 0.9 nM. In addition, the “ZR-751 HER2 2+ Max % Target Cell Lysis” value with ZR-75-1 cells (PBMC E:T 5:1, Table 25) is 21%. The EC50 in the assay with ZR-75-1 cells (PBMC E:T 5:1, Table 25, read-out: ZR-751 HER2 2+ EC50) was approximately 0.5 nM. Further, the “SKOV3 HER2 2+/3+ Max % Target Cell Lysis” value in the assay with SKOV3 cells [11] (NK E:T 5:1, Table 24) was 14%. For the same substance, the EC50 in the assay on SKOV3 cells [11] (NK E:T 5:1, Table 24, read-out: SKOV3 HER2 2+/3+ EC50) is approximately 0.6 nM. For the same substance, the “Tumor volume on study day 25” value with FaDu xenograft is recorded as 1257 mm^3. For the same substance, in the assay with GXA3054 xenograft (day 35), the complete responses is reported as 0/10. Moreover, in the assay on GXA3054 xenograft (mouse, in vivo), the “Mean tumor volume on study day 35” value was 7.8 mm3 and the “Tumor growth inhibition on day 35” value stood at 92%. Also, the “JIMT-1 HER2 2+ Max % Target Cell Lysis” value in the assay with JIMT-1 cells [7] (NK E:T 5:1, Table 23) was found to be 51%. Moreover, the EC50 with JIMT-1 cells [7] (NK E:T 5:1, Table 23, read-out: JIMT-1 HER2 2+ EC50) amounted to 0.002 nM. In the assay on HBCx-5 xenograft, the “Complete response (>10% baseline regression)” value was 0/5, the “Mean TV % change from Baseline” value is “+598%”, the “Mean TV (mm3)” value was 815 mm3 and the “Zero residual disease (TV < 20 mm3)” value is recorded as 0/5. The “Tumor volume on study day 29” value in the assay on ST1337B xenograft amounted to 1264 mm3. Further, in the assay with JIMT-1 xenograft, the “Mean TV % change from Baseline” value is reported as “+541%”, the “Mean TV (mm3)” value worked out at 718 mm3, the “PR (>10% baseline regression)” value is on record as 0/10 and the “ZRD (TV < 20 mm3)” value is 0/10.
